Here are results for nine compounds from ChEMBL document CHEMBL1158408, “Large-scale application of high-throughput molecular mechanics with Poisson-Boltzmann surface area for routine physics-based scoring of protein-ligand complexes” (J Med Chem, 2009).

The target in experiment [1] is Urokinase-type plasminogen activator (Homo sapiens, UniProt P00749).
The target of experiment [2] is T1, Tyrosine-protein phosphatase non-receptor type 1 (Homo sapiens, UniProt P18031).
T1 sequence (P18031 whole entry): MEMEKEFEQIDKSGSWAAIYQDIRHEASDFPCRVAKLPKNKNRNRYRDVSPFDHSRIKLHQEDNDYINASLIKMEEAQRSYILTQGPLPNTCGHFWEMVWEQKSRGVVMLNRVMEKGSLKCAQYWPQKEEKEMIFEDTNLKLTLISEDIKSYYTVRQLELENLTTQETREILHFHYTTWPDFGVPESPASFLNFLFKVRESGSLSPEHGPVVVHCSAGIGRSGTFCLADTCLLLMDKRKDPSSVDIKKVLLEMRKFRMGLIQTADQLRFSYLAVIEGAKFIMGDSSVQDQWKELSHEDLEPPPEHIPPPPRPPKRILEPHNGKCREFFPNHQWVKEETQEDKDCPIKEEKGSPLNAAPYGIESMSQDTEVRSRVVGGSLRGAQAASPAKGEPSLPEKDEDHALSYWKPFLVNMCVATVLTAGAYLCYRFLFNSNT

pKi: −log10 of the molar value.

With `COc1ccc2ccc(C(=N)N)cc2c1-c1ccco1`, the negative logarithm of the Ki (pKi) in experiment [1] was 5.70.

With `CCCCCNC(=O)[C@H](Cc1ccc(N(C(=O)C(=O)O)c2ccccc2C(=O)O)c(/C=C/C(N)=O)c1)NS(C)(=O)=O`, in experiment [2], the pKi was 6.60.

Compound `CCCCCNC(=O)C(Cc1ccc(N(C(=O)C(=O)O)c2ccccc2C(=O)O)c2ccccc12)NC(C)=O` (centres undefined) gave a negative logarithm of the Ki (pKi) in experiment [2] of 6.20.

The compound `N=C(N)c1ccc2cc(C#Cc3ccc(CCN)cc3)ccc2c1` had a pKi in experiment [1] of 6.40.

`COc1ccc2ccc(C(=N)N)cc2c1Nc1ccccc1` had a pKi in experiment [1] of 5.80.

For `N=C(N)c1ccc2cc(-c3ccc(N)cc3)ccc2c1`, the pKi in experiment [1] was 5.70.

`CCc1cc(CC(NC(C)=O)C(=O)NCCCCOc2cccc(O)c2C(=O)OC)ccc1N(C(=O)C(=O)O)c1ccccc1C(=O)O` (centres undefined) gave a pKi in experiment [2] of 7.90.

In turn, `N=C(N)c1ccc2cc(/C=C/c3ccc(C(O)CO)cc3)ccc2c1` (centres undefined) had a pKi in experiment [1] of 6.10.

In experiment [1], `CC(C)C1=NCCc2ccc(C3CC3c3ccc4cc(C(=N)N)ccc4c3)cc21` (centres undefined) had a pKi of 6.90.

A word on the pKi: it is −log10 of the Ki, conventionally taken in molar units. The low end stands for a large Ki, the high end for a small Ki.
